Assays:
[1] = Metabolic stability in mouse hepatocyte assessed as intrinsic clearance; assay type: ADME, cell-based; conditions: hepatocytes, 1 h, 1 µM, time 60 min
THP-1 = assay: Cytotoxicity against human THP-1 cells assessed as reduction in cell viability upto 100 uM incubated for 24 hrs by CCK-8 assay; assay type: toxicity, cell-based; conditions: thp-1, 24 h
[2] = Metabolic stability in human hepatocyte assessed as intrinsic clearance; assay type: ADME, cell-based; conditions: hepatocytes, 1 h, 1 µM, time 60 min

SMILES | CLH [1] | Activity (THP-1) | CLH [2]
Cc1cccc(Nc2cccc(Cl)c2-c2ccccc2)c1C(=O)O | 0.8 mL/min | Non-Toxic | 591 mL/min
Cc1cccc(Nc2cccc(Cl)c2-c2ccc3c(c2)CCO3)c1C(=O)O | 0.69 mL/min |  | 1228 mL/min

From ChEMBL document CHEMBL5537130, “Structure-based design of potent FABP4 inhibitors with high selectivity against FABP3” (Eur J Med Chem, 2024)
